# Results as given in patent US20260263449A1, “METHODS AND COMPOSITIONS FOR TREATING COCAINE ADDICTION” (The Jackson Laboratory, priority 2023, published 2026).
# Tested on: C57BL/6NJ mice
# Assay: hypothermia bioassay for blood-brain barrier penetration in mice
# Settings: intravenous injection, 10 mg/kg, temperature monitored for 120 minutes, vehicle 5% Kolliphor HS-15 and 5% NMP in saline
smiles,measurement,value
"CN(C)CCc1c[nH]c2ccc(C[C@H]3COC(=O)N3)cc12 [zolmitriptan, reference compound]",central hypothermia (internal temperature),induced central hypothermia
